Test system: HEK293H cells
Assay: Toxic effect on the transfected cells in the GLA[A156V] assay
Type: cell-based
Conditions: concentration of 80 μM, with DGJ; FIG. 10

SMILES | toxic effect on the cells
CN(Cc1cc(Br)cc(Br)c1N)C1CCCCC1 [Bromhexine, 2,4-dibromo-6-{[cyclohexyl(methyl)amino]methyl}aniline] | toxic effect
CN(Cc1cc(C#N)cc(Br)c1N)C1CCCCC1 [SF-55C] | toxic effect

From patent publication US20210228560A1 (Centogene IP GmbH, priority 2011, published 2021)
